Where two headings read alike, the source gives them in different places.
Tested on: THP-1 cells
Details: IMMP 10^−10 M where added

## Cortisone
Cortisone 10^−6
  Cell Viability (% with respect to the control): 65 ± 5 %
Cortisone 10^−7
  Cell Viability (% with respect to the control): 70 ± 7 %
Cortisone 10^−8
  Cell Viability (% with respect to the control): 80 ± 6 %

Reference: US20150132328A1 (priority 2011, published 2015)
